Measurements as given in patent EP2342182B1 (H. Lundbeck A/S, priority 2008, dated 2010).

Sequences of proteins named here, by UniProt entry; tags and fusion partners are left off.
UniProt P29371, whole entry: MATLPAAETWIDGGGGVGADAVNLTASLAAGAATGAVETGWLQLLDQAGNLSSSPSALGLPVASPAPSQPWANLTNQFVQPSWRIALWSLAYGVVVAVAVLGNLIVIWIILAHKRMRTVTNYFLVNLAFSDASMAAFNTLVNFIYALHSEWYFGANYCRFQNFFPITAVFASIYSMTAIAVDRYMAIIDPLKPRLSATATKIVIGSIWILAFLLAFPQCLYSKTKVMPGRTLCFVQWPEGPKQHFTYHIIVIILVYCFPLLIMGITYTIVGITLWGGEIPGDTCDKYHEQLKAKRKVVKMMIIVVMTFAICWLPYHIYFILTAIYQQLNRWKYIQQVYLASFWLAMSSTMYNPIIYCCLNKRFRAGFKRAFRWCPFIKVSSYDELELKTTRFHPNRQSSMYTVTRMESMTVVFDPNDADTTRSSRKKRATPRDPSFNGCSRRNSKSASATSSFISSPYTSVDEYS

Biological target: T1, human NK3 receptor (Homo sapiens, UniProt P29371)
T1 construct: expressed in transfected cells; membranes prepared from them
Experiment: NK3 receptor efficacy and potency assay (FLIPR Calcium 4)
Format: cell-based
Settings: agonist dose-response in BHK cells
Description: The assay was performed according to the FLIPR Calcium 4 Assay kit (Molecular Devices).
For efficacy and potency evaluation of compounds, these were diluted in HBSS buffer prior to test. […] The plates were subsequently analyzed for 5 minutes before the assay was terminated. The maximal increase in fluorescence over background following each ligand addition was determined.

Substance: neurokinin B [NKB]
- EC85 concentration of NKB: ~4 nM
